This note sets out measurements from patent publication US20110008465A1, “SESQUITERPENE FORMULATIONS, KITS AND METHODS OF USE THEREOF” (priority 2007, published 2011).

Holding throughout (test): Chou and Talalay combination assay with beta-caryophyllene
Common to all, as to details: anticancer drug in combination with beta-caryophyllene; Chou and Talalay CI; 48 h

Experiment [1] concerns MCF-7 (breast cancer). It counts as cell-based, human.
In experiment [2] the test system is MDA-MB-231 (breast cancer). It counts as cell-based, human.
Experiment [3] deals with A-549 (lung cancer). Type of experiment: cell-based, human.
Experiment [4] deals with DLD-1 (colon cancer). It counts as cell-based, human.
Experiment [5] deals with PA-1 (ovary cancer). Type of experiment: cell-based, human.
In experiment [6] the test system is MEL-2 (human melanoma). It counts as cell-based.
Experiment [7] has as its system B16 (murine melanoma). Type of experiment: cell-based.
In experiment [8] the test system is U-251 (human glioblastoma). Type of experiment: cell-based.
For experiment [9], the system named is GL-261 (murine glioblastoma). Type of experiment: cell-based.

`CC(=O)O[C@@]12CO[C@@H]1C[C@H](O)[C@@]1(C)C(=O)[C@H](O)C3=C(C)[C@@H](OC(=O)[C@H](O)[C@@H](NC(=O)OC(C)(C)C)c4ccccc4)C[C@@](O)([C@@H](OC(=O)c4ccccc4)[C@H]21)C3(C)C` [Taxotere ™, docetaxel]: the “Potentiating activity MCF-7” value in experiment [1] was “(1) (Very High: CI equal or below 1 at IC20 and Cl below 0.6 to IC50)”. Further, the “Potentiating activity MDA” value in [2] is recorded as “(4) (Weak: 0.8 < CI < 1 at IC50)”. Further, in experiment [3], the “Potentiating activity A-549” value is “(3) (Moderate: 0.5 < CI < 0.8 at IC50)”. Also, the “Potentiating activity DLD-1” value in [4] is on record as “(3) (Moderate: 0.5 < CI < 0.8 at IC50)”. Besides, in [5], the “Potentiating activity PA-1” value was “(1) (Very High: potentiating or additive activity to IC20 and CI < 0.6 to IC50)”. Besides, the “Potentiating activity MEL-2” value in experiment [6] was “(3) (Moderate: 0.5 < CI < 0.8 to IC50)”. Further, the “Potentiating activity B16” value in experiment [7] was “(1) (Very High: potentiating or additive activity to IC20 and CI < 0.6 to IC50)”. Moreover, the “Potentiating activity U-251” value in experiment [8] was “(1) (Very High: potentiating or additive activity to IC20 and CI < 0.6 to IC50)”. Besides, the “Potentiating activity GL-261” value in [9] is reported as “(3) (Moderate: 0.5 < CI < 0.8 to IC50)”.

For the compound `N[C@@H](Cc1ccc(N(CCCl)CCCl)cc1)C(=O)O` [Melphalan, melphalan], the “Potentiating activity MCF-7” value in [1] is “(2) (High: CI below 0.5 at IC50)”. Moreover, in experiment [2], the “Potentiating activity MDA” value was “(3) (Moderate: 0.5 < CI < 0.8 at IC50)”. The “Potentiating activity A-549” value in [3] is “(4) (Weak: 0.8 < CI < 1 at IC50)”. Also, in [4], the “Potentiating activity DLD-1” value is on record as “(3) (Moderate: 0.5 < CI < 0.8 at IC50)”. In addition, the “Potentiating activity PA-1” value in [5] is “(1) (Very High: potentiating or additive activity to IC20 and CI < 0.6 to IC50)”. Moreover, the “Potentiating activity MEL-2” value in experiment [6] was “(1) (Very High: potentiating or additive activity to IC20 and CI < 0.6 to IC50)”. Also, the “Potentiating activity B16” value in [7] was “(1) (Very High: potentiating or additive activity to IC20 and CI < 0.6 to IC50)”. For the same compound, the “Potentiating activity U-251” value in experiment [8] is “(1) (Very High: potentiating or additive activity to IC20 and CI < 0.6 to IC50)”. In addition, in experiment [9], the “Potentiating activity GL-261” value is “(1) (Very High: potentiating or additive activity to IC20 and CI < 0.6 to IC50)”.
